Assay results published in patent US8309725B2 (priority 2007, dated 2012).

Chains of the proteins cited; added tags and fusions are not shown. Lines headed by an entry give the natural chain unless they say otherwise; changes in a name come on top.
UniProt P41145: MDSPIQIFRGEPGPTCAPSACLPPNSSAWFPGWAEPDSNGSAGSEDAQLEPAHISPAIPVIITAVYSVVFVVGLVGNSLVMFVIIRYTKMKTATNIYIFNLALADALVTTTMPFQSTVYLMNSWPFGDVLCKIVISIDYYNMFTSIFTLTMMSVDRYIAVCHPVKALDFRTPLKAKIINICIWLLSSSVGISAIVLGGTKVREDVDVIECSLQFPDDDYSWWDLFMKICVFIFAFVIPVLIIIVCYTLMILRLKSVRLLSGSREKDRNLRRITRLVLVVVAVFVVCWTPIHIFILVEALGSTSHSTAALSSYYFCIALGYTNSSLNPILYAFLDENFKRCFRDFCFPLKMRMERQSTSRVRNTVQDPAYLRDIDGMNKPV
UniProt P41144: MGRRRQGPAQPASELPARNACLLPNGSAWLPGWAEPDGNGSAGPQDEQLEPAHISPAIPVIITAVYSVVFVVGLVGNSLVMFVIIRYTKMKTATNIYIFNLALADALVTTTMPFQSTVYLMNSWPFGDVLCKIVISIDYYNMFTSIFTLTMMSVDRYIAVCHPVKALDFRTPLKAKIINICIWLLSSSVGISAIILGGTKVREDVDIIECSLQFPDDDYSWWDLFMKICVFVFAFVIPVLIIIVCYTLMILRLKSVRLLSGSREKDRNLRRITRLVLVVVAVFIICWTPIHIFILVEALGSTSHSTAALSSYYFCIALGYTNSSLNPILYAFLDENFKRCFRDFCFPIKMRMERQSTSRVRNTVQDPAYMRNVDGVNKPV
UniProt P35372, whole entry, looked up: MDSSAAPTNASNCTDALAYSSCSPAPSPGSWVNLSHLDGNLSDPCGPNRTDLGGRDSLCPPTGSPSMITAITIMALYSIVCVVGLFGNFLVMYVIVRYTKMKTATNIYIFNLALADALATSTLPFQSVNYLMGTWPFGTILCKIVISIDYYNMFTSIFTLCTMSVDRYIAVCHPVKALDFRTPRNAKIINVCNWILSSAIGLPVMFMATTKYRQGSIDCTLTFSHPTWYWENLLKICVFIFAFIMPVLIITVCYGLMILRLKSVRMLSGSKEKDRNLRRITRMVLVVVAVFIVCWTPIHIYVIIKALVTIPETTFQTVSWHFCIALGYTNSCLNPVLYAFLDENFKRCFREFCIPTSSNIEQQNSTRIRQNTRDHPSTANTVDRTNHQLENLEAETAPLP

Key:
[1] = in vivo model (analgesic activity, not further specified)
male NMRI mice [2] = experiment: visceral inflammation pain model (colitis induced by mustard oil); type: in vivo, mouse; conditions: for peripheral analgesic action (conclusion of the visceral pain model): i.v.
human κ opioid receptor = human κ opioid receptor (Homo sapiens, UniProt P41145); experiment: binding to human κ opiate receptor membranes (HEK-293 cells, [3H]-CI-977, SPA); conditions: read-out: affinity for the κ receptor (Ki), human κ opioid receptor membranes from HEK-293 cells
κ receptor = κ receptor (Cavia porcellus, UniProt P41144); conditions: read-out: affinity for the κ receptor (Ki ± SEM); guinea pig brain preparation, [3H]-U69.593, text of Example 30
male NMRI mice [3] = experiment: phenylquinone-induced writhing test on the mouse; conditions: for analgesic action (conclusion of the writhing test): i.v.
human μ opioid receptor = human μ opioid receptor (Homo sapiens, UniProt P35372); experiment: binding to human μ opiate receptor membranes (CHO-K1 cells, [3H]-naloxone, SPA); conditions: read-out: affinity for the μ receptor (Ki), human μ opioid receptor membranes from CHO-K1 cells
[4] = 10 mg/kg intravenously in PEG 200, phenylquinone i.p. after 10 minutes, mouse
[5] = 21.5 mg/kg i.v., 2 to 12 minutes after rectal mustard oil, mouse

Compound | analgesic activity in an in vivo model [1] | analgesic action compared with the compound of the formula (4) [1] | analgesic effect in the spontaneous pain study (male NMRI mice [2]; 1.0 mg/kg, 3.16 mg/kg and 10 mg/kg i.v., mouse) | analgesic effect in the spontaneous pain study (male NMRI mice [2]; 10 mg/kg i.v., mouse) | peripheral analgesic action (conclusion of the visceral pain model) (male NMRI mice [2]; mouse) | Ki (human κ opioid receptor) [nM] | Ki (κ receptor) [nM] | percentage inhibition of the writhing reactions (male NMRI mice [3]; 3.16 mg/kg intravenously in PEG 200, mouse) [%] | percentage inhibition of the writhing reactions (male NMRI mice [3]; [4]) | percentage inhibition of the writhing reactions (male NMRI mice [3]; 21.5 mg/kg intravenously in PEG 200, mouse) [%] | analgesic action (conclusion of the writhing test) (male NMRI mice [3]; mouse) | Ki (human μ opioid receptor) [nM] | action in the spontaneous pain study (male NMRI mice [2]; [5]) | spontaneous visceral pain score (male NMRI mice [2]; [5]) | action in the models of the centrally mediated types of pain, allodynia and hyperalgesia (male NMRI mice [2]; 21.5 mg/kg i.v., von Frey filaments 1 mN and 16 mN, 20 to 40 minutes after mustard oil) | side effects (male NMRI mice [3]; 10 mg/kg intravenously, mouse)
O=C(Cc1ccc(Cl)c(Cl)c1)N1CCNC2CCCC(N3CCC(O)C3)C21 (centres unmarked) | analgesic activity | – | – | – | – | – | – | – | – | – | – | – | – | – | – | –
O=C(Cc1ccc(Cl)c(Cl)c1)N1CCNC2CCCC(N3CCCC3)C21 (centres unmarked) | analgesic activity | even better analgesic action | – | – | – | – | – | – | – | – | – | – | – | – | – | –
2-(3,4-dichlorophenyl)-1-{(4aRS,8SR,8aSR)-8-[(3SR)-3-hydroxypyrrolidin-1-yl]perhydroquinoxalin-1-yl}ethan-1-one and 2-(3,4-dichlorophenyl)-1-{(4aRS,8SR,8aSR)-8-[(3RS)-3-hydroxypyrrolidin-1-yl]perhydroquinoxalin-1-yl}ethan-1-one | – | – | showed an analgesic effect in the spontaneous pain study with the forms of administration with increasing dose | absence of pain was nearly achieved | good peripheral analgesic action | 19 | 8.7 | 5 | 40% | 97 | analgesic action | 4900 | – | – | – | –
O=C(Cc1ccc(Cl)c(Cl)c1)N1CCN[C@@H]2CCC[C@H](N3CCCC3)[C@@H]21 (racemic) | – | – | – | – | good peripheral analgesic action | 28 | 2.1 | – | about 9% | – | analgesic action | 2800 | very good action | corresponded to that of the control group | no action | No noticeable side effects
